Chains of the proteins cited; added tags and fusions are not shown. Lines headed by an entry give the natural chain unless they say otherwise; changes in a name come on top.
UniProt P22303: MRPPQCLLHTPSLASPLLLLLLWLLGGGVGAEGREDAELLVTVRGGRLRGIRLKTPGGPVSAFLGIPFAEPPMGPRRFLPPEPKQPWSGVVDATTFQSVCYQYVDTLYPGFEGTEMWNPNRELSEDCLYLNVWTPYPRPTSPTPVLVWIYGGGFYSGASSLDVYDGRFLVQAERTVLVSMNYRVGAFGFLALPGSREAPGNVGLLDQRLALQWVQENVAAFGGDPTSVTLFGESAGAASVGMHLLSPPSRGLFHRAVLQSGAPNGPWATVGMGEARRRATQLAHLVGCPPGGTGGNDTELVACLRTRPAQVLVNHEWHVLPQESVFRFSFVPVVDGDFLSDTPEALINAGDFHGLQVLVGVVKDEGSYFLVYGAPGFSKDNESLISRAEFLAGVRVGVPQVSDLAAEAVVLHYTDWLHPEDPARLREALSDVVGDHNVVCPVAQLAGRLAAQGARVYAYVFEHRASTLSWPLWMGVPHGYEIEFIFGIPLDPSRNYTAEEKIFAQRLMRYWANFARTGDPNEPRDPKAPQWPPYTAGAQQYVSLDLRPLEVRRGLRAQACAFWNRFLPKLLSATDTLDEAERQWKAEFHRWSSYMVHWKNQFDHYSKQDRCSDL

In ChEMBL document CHEMBL4024757, “Application of the Ugi Multicomponent Reaction in the Synthesis of Reactivators of Nerve Agent Inhibited Acetylcholinesterase” (2017):

Columns and labels:
[1] = biological target: Acetylcholinesterase (Homo sapiens) (UniProt P22303); test: Reactivation of cyclosarin inhibited human erythrocyte AChE assessed as residual activity at 10 to 1000 uM using acetylthiocholine iodide as substrate preincubated for 2 to 120 mins followed by substrate addition measured for 3 mins by Ellman's method
[2] = biological target: Acetylcholinesterase (Homo sapiens) (UniProt P22303); test: Reactivation of tabun inhibited human erythrocyte AChE assessed as residual activity at 10 to 1000 uM using acetylthiocholine iodide as substrate preincubated for 2 to 120 mins followed by substrate addition measured for 3 mins by Ellman's method
[3] = biological target: Acetylcholinesterase (Homo sapiens) (UniProt P22303); test: Reactivation of tabun inhibited human erythrocyte AChE assessed as residual activity up to 0.25 mM using acetylthiocholine iodide as substrate preincubated for 2 to 120 mins followed by substrate addition measured for 3 mins by Ellman's method
[4] = biological target: Acetylcholinesterase (Homo sapiens) (UniProt P22303); test: Reactivation of sarin inhibited human erythrocyte AChE assessed as residual activity up to 0.25 mM using acetylthiocholine iodide as substrate preincubated for 2 to 120 mins followed by substrate addition measured for 3 mins by Ellman's method
[5] = biological target: Acetylcholinesterase (Homo sapiens) (UniProt P22303); test: Reactivation of cyclosarin inhibited human erythrocyte AChE assessed as residual activity up to 0.25 mM using acetylthiocholine iodide as substrate preincubated for 2 to 120 mins followed by substrate addition measured for 3 mins by Ellman's method
[6] = biological target: Acetylcholinesterase (Homo sapiens) (UniProt P22303); test: Reactivation of sarin inhibited human erythrocyte AChE assessed as residual activity at 10 to 1000 uM using acetylthiocholine iodide as substrate preincubated for 2 to 120 mins followed by substrate addition measured for 3 mins by Ellman's method
Rattus norvegicus = test: Anticholinergic activity in Wistar rat assessed as protection against sarin-induced convulsions at 16 umol/kg, iv after 4 hrs

| Compound | Activity [1] | Activity [2] | Activity [6] | also measured |
| --- | --- | --- | --- | --- |
| N#C/C(=N\O)C(=O)O | inactive | inactive |  |  |
| CCCCN(CC(=O)NCc1ccccc1)C(=O)Cn1ccnc1/C=N/O |  |  |  | Activity [3]: inactive; Activity [4]: inactive; Activity [5]: inactive |
| O=C(O)Cn1ccnc1/C=N/O | inactive | inactive | inactive |  |
| C/C(=N\O)C(=O)O | inactive | inactive |  |  |
| COc1ccc(CN(CC(=O)NC(C)C)C(=O)/C=N/O)cc1 | inactive | inactive | Active |  |
| O=C(O)CCCCC[n+]1ccc(/C=N/O)cc1 | inactive | inactive | Active |  |
| COc1ccc(CN(CC(=O)NC(C)C)C(=O)CCCCCNC(=O)/C=N/O)cc1 | inactive | inactive | Active |  |
| COc1ccc(CN(CC(=O)NC(C)C)C(=O)/C(C)=N/O)cc1 | inactive | inactive | Active |  |
| O=C(O)/C=N/O | inactive | inactive |  |  |
| COc1ccc(CN(CC(=O)NC(C)C)C(=O)CCNC(=O)/C(C)=N/O)cc1 | inactive | inactive |  |  |
| O=C(O)CCCn1ccnc1/C=N/O | inactive | inactive | inactive |  |
| COc1ccc(CN(CC(=O)NC(C)C)C(=O)Cn2ccnc2/C=N/O)cc1 |  |  |  | Activity [3]: inactive; Activity [4]: inactive; Activity [5]: inactive |
| CCCCN(CC(=O)NCc1ccccc1)C(=O)CCCCCn1ccnc1/C=N/O |  |  |  | Activity (Rattus norvegicus): inactive |
| COc1ccc(CN(CC(=O)NC(C)C)C(=O)CCCCCn2cc[n+](C)c2/C=N\O)cc1 |  |  |  | Activity (Rattus norvegicus): inactive |
| CCCCN(CC(=O)NC(C)C)C(=O)Cn1ccnc1/C=N/O |  |  |  | Activity [3]: inactive; Activity [4]: inactive; Activity [5]: inactive |
| O=C(O)CCCCCNC(=O)/C=N/O | inactive | inactive |  |  |
| C/C(=N\O)C(=O)NCCCC(=O)O | inactive | inactive |  |  |

| Compound | Activity [1] | Activity [2] | Activity [6] | also measured |
| --- | --- | --- | --- | --- |
| COc1ccc(CN(CC(=O)NCc2ccccc2)C(=O)CCCCCn2ccnc2/C=N/O)cc1 |  |  |  | Activity (Rattus norvegicus): inactive |
| O=C(O)/C(=N/O)C(F)(F)F | inactive | inactive |  |  |
| [C-]#[N+]C(C)C | inactive | inactive |  |  |
| CCCCN | inactive | inactive |  |  |
| COc1ccc(CN(CC(=O)NCc2ccccc2)C(=O)CCCCCn2cc[n+](C)c2/C=N\O)cc1 |  |  |  | Activity (Rattus norvegicus): Active |
| COc1ccc(CN(CC(=O)NCc2ccccc2)C(=O)Cn2ccnc2/C=N/O)cc1 |  |  |  | Activity [3]: inactive; Activity [4]: inactive; Activity [5]: inactive |
| O=C(O)CCCNC(=O)/C=N/O | inactive | inactive |  |  |
| O=C(O)C[n+]1ccc(/C=N/O)cc1 | inactive | inactive | Active |  |
| C/C(=N\O)C(=O)NCCC(=O)O | inactive | inactive |  |  |
| COCCN | inactive | inactive |  |  |
| COc1ccc(CN)cc1 | inactive | inactive |  |  |
| O=C(O)CCCCCn1ccnc1/C=N/O | inactive | inactive | inactive |  |
| COc1ccc(CN(CC(=O)NC(C)C)C(=O)CCCNC(=O)/C=N/O)cc1 | inactive | inactive | Active |  |
| COc1ccc(CN(CC(=O)NC(C)C)C(=O)C[n+]2ccc(/C=N\O)cc2)cc1 | inactive | inactive | Active |  |
| COc1ccc(CN(CC(=O)NC(C)C)C(=O)CCCNC(=O)/C(C)=N/O)cc1 | inactive | inactive |  |  |
| COc1ccc(CN(CC(=O)NC(C)C)C(=O)CCCCC[n+]2ccc(/C=N/O)cc2)cc1 | inactive | inactive | Active |  |

Calls of active or inactive are those of the source. The calls are words filed in the database; no cut-off is given here.
